ChEMBL document CHEMBL1149372, “Discovery of novel and potent thiazoloquinazolines as selective Aurora A and B kinase inhibitors” (J Med Chem, 2006)

The chains behind the UniProt entries cited, without tags or fusion partners.
UniProt P53350, whole entry: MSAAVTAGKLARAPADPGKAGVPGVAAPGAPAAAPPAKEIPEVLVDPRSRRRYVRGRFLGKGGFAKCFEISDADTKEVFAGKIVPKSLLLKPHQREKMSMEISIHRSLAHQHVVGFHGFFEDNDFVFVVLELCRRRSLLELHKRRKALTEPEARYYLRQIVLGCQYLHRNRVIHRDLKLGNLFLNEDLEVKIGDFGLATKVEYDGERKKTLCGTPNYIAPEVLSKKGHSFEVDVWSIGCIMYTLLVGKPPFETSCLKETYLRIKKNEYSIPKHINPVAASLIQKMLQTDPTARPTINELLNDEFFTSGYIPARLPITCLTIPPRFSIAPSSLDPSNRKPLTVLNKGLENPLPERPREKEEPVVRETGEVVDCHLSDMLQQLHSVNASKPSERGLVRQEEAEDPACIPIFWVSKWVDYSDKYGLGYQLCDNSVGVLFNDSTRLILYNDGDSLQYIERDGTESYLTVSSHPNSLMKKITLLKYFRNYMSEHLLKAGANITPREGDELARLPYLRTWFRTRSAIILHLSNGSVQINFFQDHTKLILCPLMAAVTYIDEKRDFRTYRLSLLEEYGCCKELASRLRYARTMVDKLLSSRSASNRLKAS
UniProt P06493, whole entry: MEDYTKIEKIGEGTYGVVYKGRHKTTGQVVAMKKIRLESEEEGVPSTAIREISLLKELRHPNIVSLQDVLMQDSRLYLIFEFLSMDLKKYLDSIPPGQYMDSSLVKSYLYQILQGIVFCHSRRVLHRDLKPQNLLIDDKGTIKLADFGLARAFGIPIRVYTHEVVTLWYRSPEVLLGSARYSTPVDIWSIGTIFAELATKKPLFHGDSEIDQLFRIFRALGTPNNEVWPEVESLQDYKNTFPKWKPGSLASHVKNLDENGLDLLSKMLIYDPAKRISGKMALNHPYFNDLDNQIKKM

How the values were obtained:
[1] = molecular target: Serine/threonine-protein kinase PLK1 (Homo sapiens, UniProt P53350); test: Inhibition of in vitro Plk1 kinase activity
[2] = molecular target: Cyclin-dependent kinase 1 (Homo sapiens, UniProt P06493); test: Inhibition of in vitro CDK1 kinase activity

COc1cc2c(Nc3ccc(NC(=O)c4ccccc4)cc3)ncnc2cc1OCCCN1CCOCC1
IC50 [1]: > 10 µmol | IC50 [2]: > 10 µmol
